Laboratory results taken from US9486455B2, “Compounds for modulating TRPV3 function” (HYDRA BIOSCIENCES, INC., priority 2007, dated 2016).
Read-outs that look alike come from different tables or passages of the source.

Sequences of proteins named here, by UniProt entry; tags and fusion partners are left off. Residues count along the entry.
UniProt Q8NET8, whole entry: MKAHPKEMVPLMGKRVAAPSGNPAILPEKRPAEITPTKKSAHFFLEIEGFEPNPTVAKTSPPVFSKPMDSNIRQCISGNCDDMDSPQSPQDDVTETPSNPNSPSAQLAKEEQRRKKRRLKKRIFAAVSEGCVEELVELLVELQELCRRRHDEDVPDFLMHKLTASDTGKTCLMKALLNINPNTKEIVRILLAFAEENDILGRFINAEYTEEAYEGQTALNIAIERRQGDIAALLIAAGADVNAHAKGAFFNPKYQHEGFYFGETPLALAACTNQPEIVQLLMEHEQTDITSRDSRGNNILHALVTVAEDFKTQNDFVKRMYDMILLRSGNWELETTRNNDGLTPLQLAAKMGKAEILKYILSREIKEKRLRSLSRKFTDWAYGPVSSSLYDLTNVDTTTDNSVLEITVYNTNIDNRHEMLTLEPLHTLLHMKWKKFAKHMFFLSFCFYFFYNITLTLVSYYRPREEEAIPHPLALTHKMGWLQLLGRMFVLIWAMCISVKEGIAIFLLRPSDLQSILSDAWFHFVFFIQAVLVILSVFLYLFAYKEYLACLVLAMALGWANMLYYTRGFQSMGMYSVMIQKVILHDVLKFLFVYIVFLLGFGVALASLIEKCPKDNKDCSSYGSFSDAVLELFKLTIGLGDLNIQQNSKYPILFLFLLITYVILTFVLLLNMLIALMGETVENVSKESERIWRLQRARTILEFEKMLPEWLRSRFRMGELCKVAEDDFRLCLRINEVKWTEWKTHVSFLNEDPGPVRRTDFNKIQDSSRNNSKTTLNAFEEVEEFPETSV
UniProt Q4QYD9, 1-791: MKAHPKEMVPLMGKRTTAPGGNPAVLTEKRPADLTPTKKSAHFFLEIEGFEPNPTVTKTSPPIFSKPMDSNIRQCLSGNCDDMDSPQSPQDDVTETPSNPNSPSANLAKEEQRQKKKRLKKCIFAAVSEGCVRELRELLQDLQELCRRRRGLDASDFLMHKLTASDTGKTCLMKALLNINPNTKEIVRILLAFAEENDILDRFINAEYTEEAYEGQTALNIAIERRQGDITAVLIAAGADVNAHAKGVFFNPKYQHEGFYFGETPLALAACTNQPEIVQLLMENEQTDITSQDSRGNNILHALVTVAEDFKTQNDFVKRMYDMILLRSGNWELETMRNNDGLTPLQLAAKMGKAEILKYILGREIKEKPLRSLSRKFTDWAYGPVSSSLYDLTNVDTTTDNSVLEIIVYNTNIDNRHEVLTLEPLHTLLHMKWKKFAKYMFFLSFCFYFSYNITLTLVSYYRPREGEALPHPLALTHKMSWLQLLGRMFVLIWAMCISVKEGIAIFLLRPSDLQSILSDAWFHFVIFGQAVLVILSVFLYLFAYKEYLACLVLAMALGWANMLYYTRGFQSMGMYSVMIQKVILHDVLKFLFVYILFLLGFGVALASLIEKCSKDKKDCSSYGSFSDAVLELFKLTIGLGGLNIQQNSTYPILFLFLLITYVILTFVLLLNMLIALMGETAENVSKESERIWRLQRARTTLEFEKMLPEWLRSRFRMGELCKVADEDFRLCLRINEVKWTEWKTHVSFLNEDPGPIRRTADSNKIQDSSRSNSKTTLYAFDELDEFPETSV

Assays:
human (h) TRPV3 = human (h) TRPV3 (Homo sapiens, UniProt Q8NET8); test: Whole-cell patch clamp, human TRPV3-mediated currents
Excerpt: (§1) Whole-cell patch clamp experiments permit the detection of currents through the TRPV3 channel in the cell line described above. A glass electrode is brought into contact with a single cell and the membrane is then ruptured, permitting control of the voltage of the cell membrane and measurement of currents flowing across the membrane using the amplifier attached to the electrode. A perfusion system permits control of the extracellular solution, including the addition of blockers and activators of the current. The current can be activated by heating this solution to 28° C. or warmer or by addition of 20 μM 2-APB to the solution.
(§2) TRPV3 cells were induced 20-48 hours, removed from growth plates, and replated at low density (to attain good single-cell physical separation) on glass coverslips for measurement. In some cases, cells were grown in low density overnight on glass coverslips. Patch clamp recordings were made in the whole-cell mode with a holding potential of −40 mV. Every 5 seconds, a voltage ramp was applied from −120 to +100 mV, 400 ms in duration. Currents elicited were quantified at −80 mV and +80 mV. The internal solution consisted of 140 mM cesium aspartate, 10 mM EGTA, 2.27 mM MgCl2, 1.91 mM CaCl2 and 10 mM HEPES, pH to 7.2 with KOH; with 50 nM calculated free Ca^2+. External solution was Ringer's solution described above. Upon addition of 2-APB or upon heating of the extracellular solution as described above, TRPV3 current was induced only in TRPV3-expressing cells and not in parental HEK293 TREx cells. […] Removal of the stimulus caused most of the current to go away, and inhibitor addition could still inhibit this current. Compounds of interest were tested against TRPV3 at concentrations up to 30 μM, and the resulting data was used to estimate IC50 for inhibition of the Phase 1 and Phase 2 TRPV3-mediated currents.
(§3) P1 refers to the Phase 1 current for human (h) and rat (r) TRPV3, and P2 refers to the Phase 2 current for human (h) and rat (r) TRPV3.

rat (r) TRPV3 = rat (r) TRPV3 (Rattus norvegicus, UniProt Q4QYD9); test: Whole-cell patch clamp, rat TRPV3-mediated currents
Excerpt: as §1, §2, §3

[1] = read-out: P1 In (h), Phase 1 inward current
[2] = read-out: P1 Out (h), Phase 1 outward current
[3] = read-out: P2 In (h), Phase 2 inward current
[4] = read-out: P2 Out (h), Phase 2 outward current
[5] = read-out: P1 In (r), Phase 1 inward current
[6] = read-out: P1 Out (r), Phase 1 outward current

| IC50 (human (h) TRPV3; [1]) [nM] | IC50 (human (h) TRPV3; [2]) [nM] | IC50 (human (h) TRPV3; [3]) [nM] | IC50 (human (h) TRPV3; [4]) [nM] | IC50 (rat (r) TRPV3; read-out: P2 In (r), Phase 2 inward current) [nM] | IC50 (rat (r) TRPV3; read-out: P2 Out (r), Phase 2 outward current) [nM] | SMILES | IC50 (rat (r) TRPV3; [5]) [nM] | IC50 (rat (r) TRPV3; [6]) [nM] |
| --- | --- | --- | --- | --- | --- | --- | --- | --- |
| ≤ 5000 | ≤ 5000 | – | – | – | – | Cc1cccc(C)c1-n1c(/C=C/c2cnc(N)nc2)nc2cnccc2c1=O | – | – |
| ≤ 10000 | ≤ 10000 | ≤ 10000 | ≤ 10000 | – | – | COc1cccc(C(=O)Nc2nc3ccccc3c(=O)n2-c2c(C)cccc2C)c1O | – | – |
| ≤ 10000 | ≤ 10000 | – | – | – | – | Cc1nc2cccc(/C=C/c3nc4cnccc4c(=O)n3-c3c(C)cccc3C)c2[nH]1 | – | – |
| ≤ 10000 | ≤ 5000 | – | – | – | – | Cc1cccc(C)c1-n1c(/C=C/c2cc(F)ccc2O)nc2cnccc2c1=O | – | – |
| ≤ 500 | ≤ 500 | ≤ 500 | ≤ 500 | ≤ 500 | ≤ 500 | CCOc1nccc(/C=C/c2nc3ccccc3c(=O)n2-c2c(F)cccc2F)c1O | ≤ 500 | ≤ 500 |

| SMILES | IC50 (human (h) TRPV3; [1]) [nM] | IC50 (human (h) TRPV3; [2]) [nM] | IC50 (human (h) TRPV3; [3]) [nM] | IC50 (human (h) TRPV3; [4]) [nM] | IC50 (rat (r) TRPV3; read-out: P2 In (r), Phase 2 inward current) [nM] | IC50 (rat (r) TRPV3; read-out: P2 Out (r), Phase 2 outward current) [nM] | IC50 (rat (r) TRPV3; [5]) [nM] | IC50 (rat (r) TRPV3; [6]) [nM] |
| --- | --- | --- | --- | --- | --- | --- | --- | --- |
| COc1nccc(/C=C/c2nc3ccccc3c(=O)n2-c2c(F)cccc2F)c1O | ≤ 500 | ≤ 500 | ≤ 500 | ≤ 500 | – | – | ≤ 500 | ≤ 500 |
